What was measured:
Format in all cases: biochemical
PDE 2A = PDE 2A (Homo sapiens (Human), UniProt O00408); assay: PDE 2A assay with fluorescent substrate (IMAP, fluorescence polarization); details: read-out: PDE2 IC50
PDE 10A = PDE 10A (Homo sapiens (Human), UniProt Q9Y233); assay: Radioactive PDE10 assay ([3H]cAMP SPA)
Experimental: b) Radioactive PDE10 Assay Protocol:
In detail the protocol is as follows:
Into a 384 well plate (OptiPlate, white), the following components are pipetted (either manually or using automated pipetting devices): • 20 μl test-compound solution (test compound diluted in assay buffer at twofold the desired concentration) • +10 μl PDE 10A preparation (enzyme diluted in assay buffer to a concentration of 0.3 ng/μl protein) • +10 μl cAMP tracer (diluted in assay buffer to a concentration of 80 nM cAMP, specific activity ˜4 mCi/I)
After addition of all 3 components the plates are shortly spun and incubated at room temperature for 60 min. The reaction is stopped by the addition of 20 μl Yttrium SPA PDE Beads containing 18 mM zinc sulphate in water
PDE 10A protein is expressed upon baculovirus infection in SF9 cells.

Amino acid sequences for entries named in this document (tags omitted).
UniProt O00408, whole entry, species assumed: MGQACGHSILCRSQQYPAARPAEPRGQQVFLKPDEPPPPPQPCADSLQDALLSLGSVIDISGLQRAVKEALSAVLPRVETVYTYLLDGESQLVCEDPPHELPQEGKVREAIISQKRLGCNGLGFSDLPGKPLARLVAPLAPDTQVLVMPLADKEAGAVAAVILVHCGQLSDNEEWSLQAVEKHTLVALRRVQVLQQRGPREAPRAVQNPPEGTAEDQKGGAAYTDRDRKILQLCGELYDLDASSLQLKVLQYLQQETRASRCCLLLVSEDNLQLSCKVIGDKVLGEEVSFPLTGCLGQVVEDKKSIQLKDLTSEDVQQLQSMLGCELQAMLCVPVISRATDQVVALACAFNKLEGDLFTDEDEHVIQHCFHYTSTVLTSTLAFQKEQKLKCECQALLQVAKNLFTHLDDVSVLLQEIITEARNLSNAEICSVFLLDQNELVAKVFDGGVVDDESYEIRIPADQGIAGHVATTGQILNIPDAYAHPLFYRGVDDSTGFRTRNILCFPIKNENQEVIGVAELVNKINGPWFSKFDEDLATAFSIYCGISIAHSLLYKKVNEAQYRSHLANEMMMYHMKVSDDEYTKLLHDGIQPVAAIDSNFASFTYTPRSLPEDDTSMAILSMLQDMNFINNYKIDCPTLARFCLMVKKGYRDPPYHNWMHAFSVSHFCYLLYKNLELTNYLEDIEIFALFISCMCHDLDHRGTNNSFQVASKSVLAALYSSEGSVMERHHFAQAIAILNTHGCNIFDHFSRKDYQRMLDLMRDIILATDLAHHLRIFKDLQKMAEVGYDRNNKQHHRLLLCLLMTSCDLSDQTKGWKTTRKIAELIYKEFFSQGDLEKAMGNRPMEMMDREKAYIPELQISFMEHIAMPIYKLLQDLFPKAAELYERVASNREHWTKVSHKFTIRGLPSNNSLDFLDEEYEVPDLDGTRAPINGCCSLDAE
UniProt Q9Y233, whole entry, species assumed: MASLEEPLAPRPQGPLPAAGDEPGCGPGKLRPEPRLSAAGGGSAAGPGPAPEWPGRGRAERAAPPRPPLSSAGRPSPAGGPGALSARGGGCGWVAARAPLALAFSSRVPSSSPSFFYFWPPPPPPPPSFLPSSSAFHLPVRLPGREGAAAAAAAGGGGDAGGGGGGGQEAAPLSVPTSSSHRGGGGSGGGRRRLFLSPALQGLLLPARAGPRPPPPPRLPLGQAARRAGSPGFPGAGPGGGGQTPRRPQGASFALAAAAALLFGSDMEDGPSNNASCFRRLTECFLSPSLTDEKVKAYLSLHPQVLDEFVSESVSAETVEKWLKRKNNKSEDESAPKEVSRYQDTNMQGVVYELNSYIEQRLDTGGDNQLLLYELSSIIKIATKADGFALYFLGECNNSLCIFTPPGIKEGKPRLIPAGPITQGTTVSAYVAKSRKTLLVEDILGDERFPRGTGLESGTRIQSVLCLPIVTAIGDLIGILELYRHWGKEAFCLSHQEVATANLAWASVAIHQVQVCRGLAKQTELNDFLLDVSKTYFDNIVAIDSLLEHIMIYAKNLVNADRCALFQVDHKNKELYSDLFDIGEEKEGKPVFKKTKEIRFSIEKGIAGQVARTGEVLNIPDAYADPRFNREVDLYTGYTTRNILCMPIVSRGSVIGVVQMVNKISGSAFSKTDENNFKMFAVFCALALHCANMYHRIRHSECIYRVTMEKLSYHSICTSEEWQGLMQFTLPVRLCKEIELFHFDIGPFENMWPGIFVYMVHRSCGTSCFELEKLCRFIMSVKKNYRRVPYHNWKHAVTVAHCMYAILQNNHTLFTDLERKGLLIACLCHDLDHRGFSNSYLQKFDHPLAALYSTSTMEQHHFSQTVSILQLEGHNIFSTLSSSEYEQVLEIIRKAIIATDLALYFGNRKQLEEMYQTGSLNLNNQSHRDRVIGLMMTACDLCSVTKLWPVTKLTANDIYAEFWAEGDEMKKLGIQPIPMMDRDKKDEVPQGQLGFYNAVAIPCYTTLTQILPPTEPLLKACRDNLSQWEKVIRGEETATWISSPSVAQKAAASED

PDE10 = PDE10 (Homo sapiens (Human), UniProt Q9Y233); assay: PDE10 assay with fluorescent substrate (IMAP, fluorescence polarization)

Row | IC50 (PDE 10A) [µM] | Structure (SMILES) | also measured
1 | – | Cc1nc2ccc(C3CC3)nc2n2c(-c3cc(OC4COCC4O)ccc3Cl)nnc12 (racemic) [Example 56] | IC50 (PDE 2A): 0.002 µM
2 | > 5 | Cc1nc2cccnc2n2c(-c3cc(OC4CCOC4)ccc3Cl)nnc12 (stereo not shown) [Example 22] | –
3 | > 10 | Cc1ccc2nc(C)c3nnc(-c4cc(OCCO)ccc4Cl)n3c2n1 [Example 28] | –
4 | – | Cc1nc2ccc(C(F)(F)F)nc2n2c(-c3cc(C4(O)CCOCC4)ccc3F)nnc12 [Example 96a] | IC50 (PDE10): 10 µM

From patent US9085584B2, “Substituted pyrido[3,2-E][1,2,4]-triazolo[4,3-A]pyrazines for the treatment of central nervous system disorders” (Boehringer Ingelheim International GmbH, priority 2012, dated 2015)
